{
  "source": "patent US11077128B2",
  "about": "“Selective inhibitors of Alpha2-containing isoforms of Na,K-ATPase and use thereof for reduction of intraocular pressure” (Yeda Research and Development Co. Ltd., priority 2015, dated 2021)",
  "key": {"IOP in rabbits [1]": {"system": "IOP in rabbits", "test": "Lowering of 4AP-raised IOP in rabbits, topical", "format": "in vivo, New Zealand white rabbits", "details": "10 μM"}, "IOP in rabbits [2]": {"system": "IOP in rabbits", "test": "Lowering of basal IOP in rabbits, topical", "format": "in vivo, New Zealand white rabbits", "details": "one drop of 1 mM solution, other eye PBS"}},
  "data": [
    {"molecule": "CC(C)CN1CCC(OC2C(O)CC(OC3C(O)CC(OC4CCC5(C)C(CCC6C5CC(O)C5(C)C(C7=CC(=O)OC7)CCC65O)C4)OC3C)OC2C)OC(C)C1", "note": "(centres unmarked)", "values": [
      {"measurement": "effect on 4AP-induced IOP", "setting": "IOP in rabbits [1]", "result": "still effective"},
      {"measurement": "effect on lowering the basal IOP", "setting": "IOP in rabbits [2]", "result": "neither digoxin nor DiB had a significant effect"}
    ]}
  ]
}
